From US9562035B2, “Benzamide derivative useful as FASN inhibitors for the treatment of cancer” (Janssen Pharmaceutica NV, priority 2013, dated 2017)

Amino acid sequences for entries named in this document (tags omitted).
UniProt P49327, whole entry: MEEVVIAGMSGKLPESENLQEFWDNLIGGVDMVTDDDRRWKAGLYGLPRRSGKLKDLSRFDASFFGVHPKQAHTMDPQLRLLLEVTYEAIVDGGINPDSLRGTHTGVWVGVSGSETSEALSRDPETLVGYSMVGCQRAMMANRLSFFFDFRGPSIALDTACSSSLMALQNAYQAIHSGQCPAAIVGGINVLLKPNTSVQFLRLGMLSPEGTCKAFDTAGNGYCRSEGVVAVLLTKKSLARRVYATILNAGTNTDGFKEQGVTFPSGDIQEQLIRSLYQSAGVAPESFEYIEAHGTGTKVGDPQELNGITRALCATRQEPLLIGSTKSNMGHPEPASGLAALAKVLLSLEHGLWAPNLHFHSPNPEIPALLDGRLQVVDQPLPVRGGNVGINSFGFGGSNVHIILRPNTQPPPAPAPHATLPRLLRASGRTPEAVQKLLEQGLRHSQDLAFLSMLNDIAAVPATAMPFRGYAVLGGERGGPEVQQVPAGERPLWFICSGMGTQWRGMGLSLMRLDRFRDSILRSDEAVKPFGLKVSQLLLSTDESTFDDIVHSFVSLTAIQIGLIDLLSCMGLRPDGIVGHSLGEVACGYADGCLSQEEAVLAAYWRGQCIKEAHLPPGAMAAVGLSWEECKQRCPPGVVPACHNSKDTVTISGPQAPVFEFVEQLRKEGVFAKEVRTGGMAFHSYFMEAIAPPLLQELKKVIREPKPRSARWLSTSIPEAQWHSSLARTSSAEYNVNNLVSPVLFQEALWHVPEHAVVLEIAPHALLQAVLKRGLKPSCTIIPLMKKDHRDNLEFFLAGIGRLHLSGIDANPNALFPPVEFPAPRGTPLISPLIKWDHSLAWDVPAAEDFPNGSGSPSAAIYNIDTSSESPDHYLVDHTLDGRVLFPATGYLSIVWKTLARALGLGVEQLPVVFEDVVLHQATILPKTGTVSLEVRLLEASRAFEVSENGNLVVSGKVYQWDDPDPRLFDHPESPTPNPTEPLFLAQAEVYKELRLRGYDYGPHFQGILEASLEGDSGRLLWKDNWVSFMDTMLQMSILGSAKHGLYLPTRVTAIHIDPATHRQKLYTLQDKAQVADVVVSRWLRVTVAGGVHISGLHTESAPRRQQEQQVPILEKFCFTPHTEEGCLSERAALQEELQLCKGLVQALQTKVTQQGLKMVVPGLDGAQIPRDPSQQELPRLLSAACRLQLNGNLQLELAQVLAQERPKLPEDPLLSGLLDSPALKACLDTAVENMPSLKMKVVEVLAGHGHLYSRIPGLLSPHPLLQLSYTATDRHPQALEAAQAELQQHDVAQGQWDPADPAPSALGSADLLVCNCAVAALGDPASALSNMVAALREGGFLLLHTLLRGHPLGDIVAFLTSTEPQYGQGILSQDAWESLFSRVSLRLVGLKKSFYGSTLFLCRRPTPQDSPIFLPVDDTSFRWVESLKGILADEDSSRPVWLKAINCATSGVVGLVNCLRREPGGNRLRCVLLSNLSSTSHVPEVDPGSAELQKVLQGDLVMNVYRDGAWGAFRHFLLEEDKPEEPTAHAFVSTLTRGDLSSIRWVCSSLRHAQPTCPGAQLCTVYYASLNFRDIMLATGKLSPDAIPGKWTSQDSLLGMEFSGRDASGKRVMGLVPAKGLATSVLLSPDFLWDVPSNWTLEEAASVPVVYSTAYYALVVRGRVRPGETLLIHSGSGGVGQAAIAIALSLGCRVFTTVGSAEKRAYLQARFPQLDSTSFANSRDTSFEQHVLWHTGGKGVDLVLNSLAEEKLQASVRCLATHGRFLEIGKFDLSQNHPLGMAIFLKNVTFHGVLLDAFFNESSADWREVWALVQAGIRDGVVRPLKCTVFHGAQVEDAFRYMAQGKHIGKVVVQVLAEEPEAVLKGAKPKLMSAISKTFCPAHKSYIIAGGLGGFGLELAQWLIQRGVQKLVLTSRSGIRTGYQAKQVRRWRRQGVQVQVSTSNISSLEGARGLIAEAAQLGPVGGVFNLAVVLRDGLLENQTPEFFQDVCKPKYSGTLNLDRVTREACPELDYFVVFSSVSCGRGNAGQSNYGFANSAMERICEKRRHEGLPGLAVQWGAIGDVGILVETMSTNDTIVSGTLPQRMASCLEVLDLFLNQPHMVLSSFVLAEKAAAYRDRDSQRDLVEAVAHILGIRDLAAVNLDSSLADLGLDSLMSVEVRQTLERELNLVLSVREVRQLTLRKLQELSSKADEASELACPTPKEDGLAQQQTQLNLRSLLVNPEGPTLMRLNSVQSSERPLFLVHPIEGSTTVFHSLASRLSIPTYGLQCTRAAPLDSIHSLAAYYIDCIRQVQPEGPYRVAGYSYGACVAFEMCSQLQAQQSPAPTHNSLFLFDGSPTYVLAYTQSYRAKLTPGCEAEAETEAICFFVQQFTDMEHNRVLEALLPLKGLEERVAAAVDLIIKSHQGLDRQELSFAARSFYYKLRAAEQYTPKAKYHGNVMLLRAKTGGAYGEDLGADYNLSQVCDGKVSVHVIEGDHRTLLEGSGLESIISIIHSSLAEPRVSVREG

Legend:
[1] = target: hFASN enzyme (full length) (Homo sapiens, UniProt P49327); assay: Fatty Acid Synthase (FASN) Inhibition Scintillation Proximity Assay; type: biochemical; conditions: for Human FASN pIC50 (μM): mean where tested more than once, ~ = standard error of pIC50 larger than 0.5
A2780 ovarian cells [2] = assay: A2780 Ovarian Cell Proliferation Assay in Lipid Reduced Medium, without Palmitate; conditions: 96 h, MTT
A2780 ovarian cells [3] = assay: A2780 Ovarian Cell Proliferation Assay in Lipid Reduced Medium, with Palmitate (control); conditions: 25 μM palmitate, 96 h, MTT
[4] = target: FASN Keto-reductase Domain (Homo sapiens, UniProt P49327); assay: Fatty Acid Synthase Keto-Reductase Domain (FASN KR) Inhibition; type: biochemical; conditions: mean where tested more than once

Row | Compound | FASN % Effect @1E−05M [1] [%] | Human FASN pIC50 (μM) [1] [μM] | Proliferation A2780 w/o Palmitate pIC50 (μM) (A2780 ovarian cells [2]) | Proliferation A2780 with Palmitate pIC50 (μM) (A2780 ovarian cells [3]) | FASN K-R Domain pIC50 (μM) [4] [μM]
1 | Cc1ccc(C(=O)N2CC(c3ccc(-c4cnn(C)c4)cc3)C2)cc1NC(=O)c1cccnc1Cl | 99 | 7.11 | 6.98 | <5 | 5.30
2 | Cc1ccc(C(=O)N2CCC(c3ccc(-c4cnn(C)c4)cc3)CC2)cc1NC(=O)C1CCN(CCC(C)C)CC1 | 113 | 7.49 | 7.89 | 5.13 | 7.33
